# Apparent affinities of Ab-14 variants for a coronavirus HR2 peptide

Data: MIT Lincoln Laboratory AlphaSeq set, Li et al. 2023, doi:10.1038/s41467-023-39022-2, as distributed in FLAb.

Binding partner: SARS-CoV-2 spike HR2 peptide, sequence PDVDLGDISGINAS.

Parent: Ab-14, a human scFv built as VH, a 15-residue (Gly4Ser)3 linker, VL. Only the CDRs of the light chain vary.
VH: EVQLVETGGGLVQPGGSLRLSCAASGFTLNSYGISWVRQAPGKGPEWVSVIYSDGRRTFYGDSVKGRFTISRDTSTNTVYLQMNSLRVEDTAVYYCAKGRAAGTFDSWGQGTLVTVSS
VL: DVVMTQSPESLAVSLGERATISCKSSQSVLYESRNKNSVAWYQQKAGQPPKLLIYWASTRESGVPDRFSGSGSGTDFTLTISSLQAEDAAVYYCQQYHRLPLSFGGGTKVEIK

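Designed CDR sequences, proposed from the first random library and measured here. Their group label is 14L_En_Gibbs (En: ensemble of fine-tuned language models; Gibbs: Gibbs sampling). The assay is AlphaSeq: two haploid yeast populations carry antibody and antigen on their surface. Mating (16 h, 30 °C) was followed by selection of diploids and sequencing of their barcodes. The ratio of observed to expected reads was calibrated, replicate by replicate, on BCL2-family standards whose Kd was known from biolayer interferometry. The assay was run in six technical replicates.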

The parent's light chain CDRs are KSSQSVLYESRNKNSVA, WASTRES, QQYHRLPLS; each variant's own CDRs replace them letter for letter.
The read-out is the apparent dissociation constant on a log10 scale (nM): the lower, the stronger.
Averages over replicates are reported, and they cover detected replicates only.
"nd" means that the variant was in the library but no mating with the target was seen in that replicate; the authors take this as a sign of poor binding, and no number exists.
Background: pairings of all light chain designs with three empty control strains gave a value in 4% of cases (median 2.64, 5th percentile 1.59). Values in that range, when seen in few replicates, are hard to tell from nonspecific mating. Also given: how often the same scFv was detected with the empty control strains, with their mean in brackets.
In the paper, a design with two or fewer of six values counts as a poor binder.
The range of this assay differs from that of the first round, and the authors advise against merging the two.
Of ten entries with the parent sequence, four were seen in most replicates (averages 0.34 to 2.37), three in one and three in none, so single entries are noisy.

CDR-L1,CDR-L2,CDR-L3,"log10 Kd, replicates","mean, log10 nM",signal with controls
MLDQMDSQMGVNTNNIA,GVVESRI,QQYHRLPLS,nd / 2.11 / 0.82 / nd / 1.06 / 2.12,1.53,0 of 18
VLPDHELMLESQIHSIA,NETKRME,QQYSRLPLM,0.51 / 0.47 / 0.15 / 0.42 / 0.13 / 0.13,0.30,3 of 18 (2.81)
SLSHDQGDETNHYENVA,QDHYRAN,QDYSRLPLS,0.60 / 0.84 / 0.09 / 0.36 / 1.27 / 0.29,0.57,2 of 18 (2.36)
HISSMDMHDGGIMHSIA,DTGITER,QQYMRLPLI,0.44 / 0.35 / 0.41 / 0.20 / 0.37 / 0.42,0.37,0 of 18
MMDNCQEGYYQKNNNVA,EMNARML,QQYGRLPLM,1.51 / 1.23 / 0.76 / 1.06 / 1.22 / 1.42,1.20,1 of 18 (3.61)
NMKVGLNFEDIQHQAIA,SVDERES,QQYYRLPLT,1.63 / 1.42 / 1.10 / 1.58 / 1.58 / 1.45,1.46,0 of 18
VMQMQQDRMQDAKQNIA,GVDMRET,QQYFRLPFL,0.29 / 0.13 / -0.06 / -0.08 / -0.03 / 0.06,0.05,3 of 18 (2.90)
SLRAMILDWDSKRQNIA,DVHMREQ,QQYNRLPIV,0.29 / 0.16 / 0.40 / 0.21 / 0.17 / 0.49,0.29,1 of 18 (2.75)
MITQMEAPAGQQESSIA,HGGTKSE,QQYNRLPLA,2.08 / 1.27 / 0.83 / 0.53 / 1.85 / 1.82,1.40,0 of 18
KITTSLYRWGSDKQAVA,EENIRAR,QQYFRLPFS,0.40 / 0.47 / 0.34 / 0.25 / 0.28 / 0.54,0.38,0 of 18
YVSGDLAEGWNQQEAVA,HVSYKED,QQYYKLPLS,nd / nd / nd / nd / nd / 1.42,1.42,0 of 18
SLYEAMQTGGLRTSNIA,DVNQQMR,QHYSRLPLM,0.98 / 1.00 / 0.21 / 0.57 / 0.60 / 0.45,0.64,1 of 18 (2.16)
HISYMDGHDGKNIHNIA,DTGVTSR,QQYSRLPLI,0.22 / 0.19 / -0.02 / 0.08 / 0.07 / 0.11,0.11,0 of 18
RLKCTSTEHGAQKHAIA,EQVKLNT,QQYGRLPLS,1.76 / 1.43 / 1.06 / 1.80 / 1.32 / 1.52,1.48,0 of 18
KMNMAFQQDLMDEYSVA,DHMLRVT,QQYGRLPLS,0.97 / 2.87 / 1.91 / nd / nd / 1.58,1.83,0 of 18
HVGQTRQADISNKKSIA,AGETLID,QQYGRLPFS,0.29 / 0.27 / -0.07 / -0.11 / -0.05 / 0.55,0.15,1 of 18 (2.40)
STTSHEEESEGAHASVA,EASMLES,QQYHRLPLD,1.02 / 1.33 / 2.49 / 1.75 / 1.78 / 1.07,1.57,1 of 18 (1.67)
SFDLTKSGMENERYSIA,ERSTLMT,QDYHRLPLA,1.75 / 1.59 / 1.66 / 2.17 / 1.07 / 1.36,1.60,1 of 18 (1.17)
KFNISKEGVTSYGKSIA,GAQTIDE,QQYDRLPLA,1.46 / 1.49 / 1.52 / 1.46 / 1.01 / 1.18,1.35,0 of 18
MMDNCQEGYYQQNNNVA,EMNARML,QQYGRLPLM,1.79 / 1.01 / 0.89 / 1.40 / 1.25 / 1.05,1.23,0 of 18
KIEISNSWSLRGTKAIA,QASTRAH,QQYQRLPLL,0.53 / 0.73 / 0.91 / 0.38 / 0.49 / 0.56,0.60,3 of 18 (2.36)
QMKMSLLQGILIKDSIA,SSDLREM,QQYEHLPLI,nd / 2.55 / nd / nd / 2.43 / nd,2.49,0 of 18
RVTNEMGKEMERKQSVA,ETEQRCM,QQYARLPLI,0.68 / 0.76 / 0.79 / 0.37 / 0.89 / 0.98,0.75,0 of 18
KMKQSLEGNPKNWNSVA,EVESAKE,QQYARLPLM,1.76 / 2.79 / 2.30 / 3.01 / 2.13 / 1.21,2.20,0 of 18
KLYDEAENRVSTATNIA,DKKISLQ,QQYDRLPLS,0.66 / 0.71 / 0.73 / 1.03 / 0.83 / 0.76,0.79,0 of 18
SVTNETDGNGLKWNSVA,DAAELMT,QDYFRLPLT,2.59 / 0.73 / 1.12 / 1.58 / 1.41 / 1.61,1.51,0 of 18
TLHGNIQYGGIMWSSIA,DNVQRAN,QQYTRLPLS,1.04 / 1.12 / 0.73 / 1.37 / 0.55 / 1.01,0.97,0 of 18
SLVQKADYMDSERNNIA,NMDLRNE,QQYFHLPLT,3.03 / 1.79 / 2.34 / 2.31 / 2.59 / 1.91,2.33,0 of 18
SVSNLGMVPSVWENSIA,DVTIVEE,QQYSRLPLL,1.76 / 1.43 / 1.86 / 1.78 / 1.10 / 1.85,1.63,0 of 18
TLHANIEYGGGTWKSIA,DNVQRAD,QYYQRLPLG,1.52 / nd / nd / nd / 2.00 / 1.07,1.53,3 of 18 (2.05)
MITEIFDNKGDQRSNVA,NGETLFH,QQYDRLPFL,0.95 / 0.91 / 1.13 / 1.19 / 0.89 / 1.05,1.02,1 of 18 (3.11)
QIAETNMHVGIGANAIA,NATVRSA,QQYLRLPLM,0.21 / 0.16 / -0.10 / 0.01 / -0.04 / 0.23,0.08,0 of 18
SLMDNIWVEDTYRNAIA,DRNVRAK,QQYHLLPLS,0.84 / 1.24 / 0.89 / 1.69 / 0.93 / 1.28,1.15,0 of 18
TLMHHQDYGGEEKKSIA,NAIIKNE,QQYSRLPLA,0.82 / 0.73 / 0.93 / 0.25 / 0.85 / 1.10,0.78,1 of 18 (2.26)
SIAGTLHFNQSGGSNVA,EVQMREQ,QQYFRLPLG,1.97 / 1.91 / 3.29 / 1.92 / 1.87 / 1.81,2.13,1 of 18 (2.57)
KLDMHIPSQWEWKASIA,GTTLRLT,QDYARLPLS,nd / nd / nd / nd / nd / nd,nd,0 of 18
KLSMETATLTGHMDSIA,HVEIRWA,QQYHKLPLI,1.57 / 2.51 / nd / nd / nd / nd,2.04,0 of 18
LMNERMMMGENQQHNIA,NAAHLVK,QDYHRLPLG,1.10 / 1.33 / 0.96 / 1.32 / 1.01 / 1.40,1.19,0 of 18
KLSISIYGEGSEVQSVA,GAEELRQ,QHYNRLPLS,nd / nd / nd / nd / nd / nd,nd,0 of 18
RMDMALPHAHNNVNSIA,EGAMVAD,QQYDRLPLW,1.21 / 0.70 / 0.60 / 0.89 / 1.13 / 1.05,0.93,0 of 18
SLMNLMGGVEEMKNSIA,NHEIGVR,QQYAHLPLV,2.52 / nd / 1.09 / 1.41 / 2.05 / 1.73,1.76,0 of 18
AIVEDNAGEQKNSSNIA,SVDQRED,QQYQRLPLM,1.30 / 1.86 / 2.74 / nd / 1.59 / 1.26,1.75,0 of 18
SLSRDVGDETNHYENVA,QEHIRAN,QDYSRLPLS,0.82 / 0.60 / 0.29 / 0.48 / 0.38 / 0.76,0.55,0 of 18
MITAVMYAENESWSSIA,DKEISVN,QQYDRLPLD,nd / nd / nd / nd / 2.82 / 2.25,2.54,0 of 18
HLALRLSYGNGLNKAIA,DVQARSY,QQYARLPLL,nd / 1.47 / nd / nd / nd / nd,1.47,0 of 18

Extract of 6 entries:

CDR-L1,CDR-L2,CDR-L3,"log10 Kd, replicates","mean, log10 nM",signal with controls
SLMNLMGGVEEMKNSIA,NHEIGVR,QQYAHLPLV,2.52 / nd / 1.09 / 1.41 / 2.05 / 1.73,1.76,0 of 18
KITTSLYRWGSDKQAVA,EENIRAR,QQYFRLPFS,0.40 / 0.47 / 0.34 / 0.25 / 0.28 / 0.54,0.38,0 of 18
MITQMEAPAGQQESSIA,HGGTKSE,QQYNRLPLA,2.08 / 1.27 / 0.83 / 0.53 / 1.85 / 1.82,1.40,0 of 18
MLDQMDSQMGVNTNNIA,GVVESRI,QQYHRLPLS,nd / 2.11 / 0.82 / nd / 1.06 / 2.12,1.53,0 of 18
KMNMAFQQDLMDEYSVA,DHMLRVT,QQYGRLPLS,0.97 / 2.87 / 1.91 / nd / nd / 1.58,1.83,0 of 18
HISSMDMHDGGIMHSIA,DTGITER,QQYMRLPLI,0.44 / 0.35 / 0.41 / 0.20 / 0.37 / 0.42,0.37,0 of 18